For assay [1] the following is noted: in vivo.
The conditions of assay [2]: different animal models. An excerpt: Leonard-BE, “Noradrenaline in basic models of depression.” European-Neuropsychopharnacol. April 1997; 7 Suppl 1: S11-6; discussion S71-3.
The subject of assay [3] is υ-adrenergic receptor.

With `CCOc1ccccc1OC(c1ccccc1)C1CNCCO1` (stereo not drawn) [reboxetine], the antireserpine activity result in assay [1] was “potent”. Moreover, the anti-cholinergic activity entry in assay [2] is “only weak or no”. In assay [3], the “desensitization of υ-adrenergic receptor function” value was “ability to desensitize”.

The record behind these values is patent US6500827B2, “Drug combinations” (Pharmacia & Upjohn Company, priority 1998, dated 2002).
